The values that follow come from patent publication US20160252495A1 (UNIVERSITY OF BRITISH COLUMBIA, published 2016).

The target in this experiment is T1, hen egg white lysozyme (hen, UniProt P00698 19-147).
T1 construct: also called HEL; hen-egg lysozyme
In words: microfluidic bead assay with hybridoma cells.

B1: HyHEL5 anti-hen egg lysozyme monoclonal antibody (antibody, V domains shown)
VH: EVQLQQSGAELMKPGASVKISCKASGYTFSDYWIEWVKQRPGHGLEWIGEILPGSGSTNYHERFKGKATFTADTSSSTAYMQLNSLTSEDSGVYYCLHGNYDFDGWGQGTTLTVSS
VL: DIVLTQSPAIMSASPGEKVTMTCSASSSVNYMYWYQQKSGTSPKRWIYDTSKLASGVPVRFSGSGSGTSYSLTISSMETEDAATYYCQQWGRNPTFGGGTKLE
Take B1: the binding result is recorded as “binds”.
